Experimental data reported in patent US10086000B2, “Tricyclic compounds as inhibitors of mutant IDH enzymes” (Merck Sharp & Dohme Corp., priority 2014, dated 2018).

Amino acid sequences for entries named in this document (tags omitted).
UniProt O75874, whole entry R132H: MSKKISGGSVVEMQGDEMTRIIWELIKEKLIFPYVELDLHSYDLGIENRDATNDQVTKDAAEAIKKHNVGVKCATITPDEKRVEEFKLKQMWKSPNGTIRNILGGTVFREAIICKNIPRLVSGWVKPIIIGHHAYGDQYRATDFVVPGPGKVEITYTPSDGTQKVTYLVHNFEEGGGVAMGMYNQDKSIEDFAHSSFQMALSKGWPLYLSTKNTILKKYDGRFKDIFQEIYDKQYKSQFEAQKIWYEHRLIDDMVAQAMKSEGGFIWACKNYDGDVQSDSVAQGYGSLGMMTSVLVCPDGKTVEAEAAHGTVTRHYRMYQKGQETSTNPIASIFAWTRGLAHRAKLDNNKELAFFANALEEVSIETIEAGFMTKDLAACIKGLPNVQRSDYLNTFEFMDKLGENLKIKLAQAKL

Target: R132H mutant IDH1 enzyme (Homo sapiens (Human), UniProt O75874, R132H)
Assay: R132H IDH1 Enzymatic Assay
Assay type: biochemical
Settings: R132H mutant IDH1 enzyme 1.5 nM final; luminescence (Kinase-GLO) readout

Row | Compound | IC50 [µM]
1 | O=C([C@H]1COc2ccccc2O1)N1Cc2cccnc2Nc2ccc(N3C[C@H]4CC[C@@H](C3)O4)cc21 [Example 76, 6-[(2R)-2,3-dihydro-1,4-benzodioxin-2-ylcarbonyl]-8-[(1R,5S)-8-oxa-3-azabicyclo[3.2.1]oct-3-yl]-6,11-dihydro-5H-pyrido[2,3-b][1,5]benzodiazepine] | 0.017
2 | Cc1nc(C)c(-c2ccc3c(c2)N(C(=O)C2CCc4ccccc4CC2)Cc2cccnc2N3)s1 [Example 102, 8-(2,4-dimethyl-1,3-thiazol-5-yl)-6-(6,7,8,9-tetrahydro-5H-benzo[7]annulen-7-ylcarbonyl)-6,11-dihydro-5H-pyrido[2,3-b][1,5]benzodiazepine] | 0.006
3 | CC1(O)CC2(CC(C(=O)N3Cc4cccnc4Nc4ccc(N5CCOCC5)cc43)C2)C1 (stereo not drawn) [Example 123, 2-Methyl-6-[(8-morpholin-4-yl-5,11-dihydro-6H-pyrido[2,3-b][1,5]benzodiazepin-6-yl)carbonyl]spiro[3.3]heptan-2-ol] | 5.96
4 | Cn1ccc(-c2ccc3c(c2)N(C(=O)[C@H]2COc4ccccc4O2)Cc2cccnc2N3)n1 [Example 109, 6-[(2R)-2,3-dihydro-1,4-benzodioxin-2-ylcarbonyl]-8-(1-methyl-1H-pyrazol-3-yl)-6,11-dihydro-5H-pyrido[2,3-b][1,5]benzodiazepine] | 0.16
5 | COC1CC2CCC1CC2C(=O)N1Cc2cccnc2Nc2ccc(N3CCOCC3)cc21 (stereo not drawn) [Example 59, 6-[(5-methoxybicyclo[2.2.2]oct-2-yl)carbonyl]-8-morpholin-4-yl-6,11-dihydro-5H-pyrido[2,3-b][1,5]benzodiazepine] | 14.2
6 | CC1CC(C(=O)N2Cc3cccnc3Nc3ccc(N4CCOCC4)cc32)C2CCCC12 (stereo not drawn) [Example 70, 6-[(3-methyloctahydropentalen-1-yl)carbonyl]-8-morpholin-4-yl-6,11-dihydro-5H-pyrido[2,3-b][1,5]benzodiazepine] | 0.077
7 | O=C(C1CCc2ccccc21)N1Cc2cccnc2Nc2ccccc21 (stereo not drawn) [Example 12, 6-(2,3-dihydro-1H-inden-1-ylcarbonyl)-6,11-dihydro-5H-pyrido[2,3-b][1,5]benzodiazepine] | 1.41
8 | O=C([C@H]1CC2CCC1C2)N1Cc2cccnc2Nc2ccccc21 (stereo partly drawn) [Example 16, 6-[(2S)-bicyclo[2.2.1]hept-2-ylcarbonyl]-6,11-dihydro-5H-pyrido[2,3-b][1,5]benzodiazepine] | 8.85
9 | O=C1CC2(C1)CC(C(=O)N1Cc3cccnc3Nc3ccc(N4CCOCC4)cc31)C2 [Example 122, 6-[(8-Morpholin-4-yl-5,11-dihydro-6H-pyrido[2,3-b][1,5]benzodiazepin-6-yl)carbonyl]spiro[3.3]heptan-2-one] | 5.13
10 | O=C(C1CC2C(C1)C2(F)F)N1Cc2cccnc2Nc2ccc(N3CCOCC3)cc21 (stereo not drawn) [Example 18, 6-[(6,6-difluorobicyclo[3.1.0]hex-3-yl)carbonyl]-8-morpholin-4-yl-6,11-dihydro-5H-pyrido[2,3-b][1,5]benzodiazepine] | 0.218
11 | CC(C)(C)c1ccc2c(c1)OCC(C(=O)N1Cc3cccnc3Nc3ccc(N4CCOCC4)cc31)O2 (stereo not drawn) [Example 80, 6-[(6-tert-butyl-2,3-dihydro-1,4-benzodioxin-2-yl)carbonyl]-8-morpholin-4-yl-6,11-dihydro-5H-pyrido[2,3-b][1,5]benzodiazepine] | 0.176
12 | O=C(C1CCc2ccccc2CC1)N1Cc2cccnc2Nc2ccc(Br)cc21 [Example 64, 8-bromo-6-(6,7,8,9-tetrahydro-5H-benzo[7]annulen-7-ylcarbonyl)-6,11-dihydro-5H-pyrido[2,3-b][1,5]benzodiazepine] | 0.004
13 | C[C@@H]1C[C@@H]2CC(C(=O)N3Cc4cccnc4Nc4ccc(N5CCOCC5)cc43)CC[C@@H]2O1 (stereo in doubt) [Example 53, 6-{[(2R,3aS,5R,7aS)-2-methyloctahydro-1-benzofuran-5-yl]carbonyl}-8-morpholin-4-yl-6,11-dihydro-5H-pyrido[2,3-b][1,5]benzodiazepine] | 1.69
14 | O=C(C1CCc2ccccc2CC1)N1Cc2cccnc2Nc2ccc(N3CCOCC3)cc21 [Example 68, 8-morpholin-4-yl-6-(6,7,8,9-tetrahydro-5H-benzo[7]annulen-7-ylcarbonyl)-6,11-dihydro-5H-pyrido[2,3-b][1,5]benzodiazepine] | 0.005
15 | CC1(F)CN(C(=O)C23CCC(C(=O)N4Cc5cccnc5Nc5ccccc54)(CC2)CC3)C1 [Example 90, 6-({4-[(3-fluoro-3-methylazetidin-1-yl)carbonyl]bicyclo[2.2.2]oct-1-yl}carbonyl)-6,11-dihydro-5H-pyrido[2,3-b][1,5]benzodiazepine] | 3.85
16 | O=C(C1CC[C@H]2CCC[C@@H]12)N1Cc2cccnc2Nc2ccc(N3CCOCC3)cc21 (mixture of isomers) [Example 20, 8-morpholin-4-yl-6-[(3aR,6aR)-octahydropentalen-1-ylcarbonyl]-6,11-dihydro-5H-pyrido[2,3-b][1,5]benzodiazepine] | 0.099
17 | O=C(N1Cc2cccnc2Nc2ccccc21)C12CCC(CC1)CC2 [Example 24, 6-(bicyclo[2.2.2]oct-1-ylcarbonyl)-6,11-dihydro-5H-pyrido[2,3-b][1,5]benzodiazepine] | 1.06
18 | C[C@@H]1C[C@@H]2C[C@H](C(=O)N3Cc4cccnc4Nc4ccc(N5CCOCC5)cc43)CC[C@@H]2O1 [Example 55, 6-{[(2R,3aS,5R,7aS)-2-methyloctahydro-1-benzofuran-5-yl]carbonyl}-8-morpholin-4-yl-6,11-dihydro-5H-pyrido[2,3-b][1,5]benzodiazepine] | 1.07
19 | O=C(C1CCc2ccccc2CC1)N1Cc2cccnc2Nc2ccccc21 [Example 62, 6-(6,7,8,9-tetrahydro-5H-benzo[7]annulen-7-ylcarbonyl)-6,11-dihydro-5H-pyrido[2,3-b][1,5]benzodiazepine] | 0.009
20 | CCOc1ccc2c(n1)N(C(=O)C1CCc3ccccc3CC1)Cc1cccnc1N2 [Example 110, 2-Ethoxy-11-(6,7,8,9-tetrahydro-5H-benzo[7]annulen-7-ylcarbonyl)-10,11-dihydro-5H-dipyrido[2,3-b:2′,3′-e][1,4]diazepine] | 0.018
21 | O=C(N1Cc2cccnc2Nc2ccccc21)C12CC(C1)C2 [Example 6, 6-(bicyclo[1.1.1]pent-1-ylcarbonyl)-6,11-dihydro-5H-pyrido[2,3-b][1,5]benzodiazepine] | 18.2
22 | CC(C)[C@@H]1COC(=O)N1c1ccc2c(c1)N(C(=O)C1CCc3ccccc3CC1)Cc1cccnc1N2 [Example 126, (4R)-4-(1-Methylethyl)-3-[6-(6,7,8,9-tetrahydro-5H-benzo[7]annulen-7-ylcarbonyl)-6,11-dihydro-5H-pyrido[2,3-b][1,5]benzodiazepin-8-yl]-1,3-oxazolidin-2-one] | 0.003
23 | O=C(N1CC(F)C1)C12CCC(C(=O)N3Cc4cccnc4Nc4ccccc43)(CC1)CC2 [Example 92, 6-({4-[(3-fluoroazetidin-1-yl)carbonyl]bicyclo[2.2.2]oct-1-yl}carbonyl)-6,11-dihydro-5H-pyrido[2,3-b][1,5]benzodiazepine] | 4.52
24 | O=C([C@@H]1CC[C@@H]2OCC[C@@H]2C1)N1Cc2cccnc2Nc2ccc(N3CCOCC3)cc21 [Example 36, 8-morpholin-4-yl-6-[(3aS,5R,7aS)-octahydro-1-benzofuran-5-ylcarbonyl]-6,11-dihydro-5H-pyrido[2,3-b][1,5]benzodiazepine] | 2.31
